## Binding of CDR-mutated scFvs to a peptide of the spike HR2 region

Values reported by Li et al. 2023, doi:10.1038/s41467-023-39022-2 (FLAb copy).

The target is the same throughout: PDVDLGDISGINAS, from the HR2 region of SARS-CoV-2 spike.

Each scFv is VH, the linker GGGGSGGGGSGGGGS, VL, as in the parent Ab-14, and differs from it in the CDRs of the light chain only.
VH: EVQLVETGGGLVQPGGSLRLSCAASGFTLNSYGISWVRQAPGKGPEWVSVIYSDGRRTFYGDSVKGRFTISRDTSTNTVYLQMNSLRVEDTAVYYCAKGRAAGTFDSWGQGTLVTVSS
VL: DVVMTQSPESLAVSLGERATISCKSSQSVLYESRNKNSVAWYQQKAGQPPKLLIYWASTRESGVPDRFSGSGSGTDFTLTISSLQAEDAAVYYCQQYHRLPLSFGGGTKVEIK

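The parent was found by panning a naive human phage display library on the peptide. The variants were designed computationally from a first round of random CDR variants and then made and measured. Their group label is 14L_En_Gibbs (En: ensemble of fine-tuned language models; Gibbs: Gibbs sampling). AlphaSeq pools MATa yeast showing the antibodies with MATalpha yeast showing the peptide. The frequency of each diploid, read from paired DNA barcodes, reflects how well the two displayed proteins bind. Scores were corrected for input abundance and mapped to Kd with protein pairs of known affinity run in the same pool. Mating was done six times.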

Sequences are complete VL domains.
Values are log10 of the apparent Kd in nM; lower means stronger binding.
"nd" marks a missing value. The strain was present, yet no cells mated with the target were sequenced in that replicate, which points to weak or no binding.
Of ten entries with the parent sequence, four were seen in most replicates (averages 0.34 to 2.37), three in one and three in none, so single entries are noisy.
Three control strains display no target. For all light chain designs, 4% of the pairings with them gave a signal, with a median of 2.64 and one signal in twenty below 1.59, so weak values seen in few replicates may be background. For each scFv, signals with the empty controls are counted beside the result, with their mean in brackets.
A sequence measured in both rounds can read differently, since the two assays cover different ranges.
The authors' rule: three or more of the six replicates give a measured affinity, fewer mean a poor binder.

| VL | replicates, log10 nM | empty controls |
|---|---|---|
| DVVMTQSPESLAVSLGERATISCMVSMMPNEPTRYSNAIAWYQQKAGQPPKLLIYDHSQRNTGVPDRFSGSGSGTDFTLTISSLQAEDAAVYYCQQYDQLPLSFGGGTKVEIK | nd 1.70 1.58 1.06 0.97 3.53 | 0/18 |
| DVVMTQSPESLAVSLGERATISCSLAYTQHFGQSQEKAIAWYQQKAGQPPKLLIYEVATREQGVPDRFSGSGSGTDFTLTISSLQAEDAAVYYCQQYFRLPLGFGGGTKVEIK | 0.69 1.34 0.38 0.28 0.47 0.44 | 0/18 |
| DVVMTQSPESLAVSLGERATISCKLGEKERMNGMANKNVAWYQQKAGQPPKLLIYAMNTRVDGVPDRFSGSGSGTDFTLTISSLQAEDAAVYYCQEYHRLPLIFGGGTKVEIK | 0.17 0.10 -0.02 0.11 0.09 -0.02 | 4/18 (2.89) |
| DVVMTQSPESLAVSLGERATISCKLMEQFGHSMDHKNSIAWYQQKAGQPPKLLIYHVDMLAQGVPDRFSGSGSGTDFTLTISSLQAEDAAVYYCQQYMHLPLIFGGGTKVEIK | 0.94 0.98 0.94 0.91 0.79 0.61 | 2/18 (2.82) |
| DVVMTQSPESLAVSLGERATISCVVQQNFIDGMERQYSVAWYQQKAGQPPKLLIYETSRVMEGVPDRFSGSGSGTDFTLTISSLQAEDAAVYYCQQYFHLPLIFGGGTKVEIK | 1.11 0.47 0.44 0.28 0.39 0.29 | 0/18 |
| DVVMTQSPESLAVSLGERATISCKITFQGRLYDAHWDSIAWYQQKAGQPPKLLIYQTNLYEQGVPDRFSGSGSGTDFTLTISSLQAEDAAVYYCQQYDRLPLDFGGGTKVEIK | nd nd nd nd nd nd | 1/18 (0.05) |
| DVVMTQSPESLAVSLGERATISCHVNGEWNHGANRDNNIAWYQQKAGQPPKLLIYEAQLVAAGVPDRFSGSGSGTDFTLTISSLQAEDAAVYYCQDYFRLPFIFGGGTKVEIK | 0.90 1.02 0.95 1.26 1.02 1.09 | 2/18 (2.39) |
| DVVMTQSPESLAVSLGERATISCQIMDRAEDGNHIAGQVAWYQQKAGQPPKLLIYDAAELIEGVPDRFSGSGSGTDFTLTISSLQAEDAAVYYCQQYQHLPLSFGGGTKVEIK | 1.45 2.69 1.16 1.17 1.54 1.41 | 0/18 |
| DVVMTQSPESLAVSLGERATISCSLAYTQHFGQTQEKAIAWYQQKAGQPPKLLIYEVATRCQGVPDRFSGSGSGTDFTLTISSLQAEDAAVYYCQQYFRLPLGFGGGTKVEIK | 1.10 0.70 0.76 0.78 0.72 0.89 | 0/18 |
| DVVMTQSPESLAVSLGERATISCMITQMETPAGQQEHSIAWYQQKAGQPPKLLIYHGGTKIEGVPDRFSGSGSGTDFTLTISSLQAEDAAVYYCQQYNRLPLAFGGGTKVEIK | 1.02 0.58 1.31 0.47 0.89 0.80 | 0/18 |
| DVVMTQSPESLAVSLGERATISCNLSIQNQPQNMSANNVAWYQQKAGQPPKLLIYQTESRCEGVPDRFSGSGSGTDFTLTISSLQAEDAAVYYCQQYAQLPLAFGGGTKVEIK | 1.87 1.02 1.19 1.74 1.72 1.95 | 2/18 (2.35) |
| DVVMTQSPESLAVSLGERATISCMLENKPTSFNNNKDAIAWYQQKAGQPPKLLIYDDSASTSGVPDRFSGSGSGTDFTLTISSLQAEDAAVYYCQQYDRLPLSFGGGTKVEIK | nd nd nd nd nd nd | 0/18 |
| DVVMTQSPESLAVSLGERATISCQLSMMEQHMGDRMHNVAWYQQKAGQPPKLLIYDTNVAKMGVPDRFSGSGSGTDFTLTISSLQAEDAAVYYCQDYFRLPLMFGGGTKVEIK | nd nd 2.63 nd nd nd | 0/18 |
| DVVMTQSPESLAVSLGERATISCQIMHFGLEANLNSKNVAWYQQKAGQPPKLLIYAKNLRVDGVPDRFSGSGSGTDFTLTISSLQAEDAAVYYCQQYNRLPLSFGGGTKVEIK | 0.07 0.03 -0.24 -0.04 -0.53 -0.03 | 0/18 |
| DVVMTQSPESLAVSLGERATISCKIELDLTRYNNSYSAIAWYQQKAGQPPKLLIYGETQKANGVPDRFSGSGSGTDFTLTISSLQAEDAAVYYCQQYSRLPLVFGGGTKVEIK | 1.05 0.87 0.48 0.62 1.50 1.02 | 0/18 |
| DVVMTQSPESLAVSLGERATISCKLAQGIYEPWRHSHNIAWYQQKAGQPPKLLIYEASHVCDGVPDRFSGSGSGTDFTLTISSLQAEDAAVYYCQQYARLPLEFGGGTKVEIK | 0.93 0.96 0.77 0.88 0.64 1.04 | 1/18 (2.39) |
| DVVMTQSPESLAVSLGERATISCHIDQVKAEQKTAENNIAWYQQKAGQPPKLLIYSGAQRVWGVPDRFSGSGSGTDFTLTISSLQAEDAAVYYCQQYSRLPFSFGGGTKVEIK | 0.24 0.44 0.17 0.54 0.34 0.63 | 2/18 (1.65) |
| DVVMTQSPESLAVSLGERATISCKVFMELAEDKASTRNIAWYQQKAGQPPKLLIYDASVHCAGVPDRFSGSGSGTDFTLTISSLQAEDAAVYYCQQYQRLPLGFGGGTKVEIK | 0.20 0.22 0.26 -0.09 0.03 0.50 | 0/18 |
| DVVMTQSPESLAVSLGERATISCMIEQGENEQEEHKNAIAWYQQKAGQPPKLLIYSGHERPRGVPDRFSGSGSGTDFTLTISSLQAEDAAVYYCQQYYKLPLVFGGGTKVEIK | 0.68 0.65 0.49 0.33 0.58 0.80 | 1/18 (2.31) |

The first 2 variants above that were never detected:

| VL | replicates, log10 nM | empty controls |
|---|---|---|
| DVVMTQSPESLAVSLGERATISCKITFQGRLYDAHWDSIAWYQQKAGQPPKLLIYQTNLYEQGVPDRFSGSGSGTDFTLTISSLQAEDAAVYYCQQYDRLPLDFGGGTKVEIK | nd nd nd nd nd nd | 1/18 (0.05) |
| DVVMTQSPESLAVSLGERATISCMLENKPTSFNNNKDAIAWYQQKAGQPPKLLIYDDSASTSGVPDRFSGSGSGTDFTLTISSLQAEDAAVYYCQQYDRLPLSFGGGTKVEIK | nd nd nd nd nd nd | 0/18 |